Legend:
[1] = target: T1, Serine/threonine-protein kinase Nek3 (Homo sapiens) (UniProt P51956); conditions: Compound concentration 1000.0 nM
T1 sequence (whole entry): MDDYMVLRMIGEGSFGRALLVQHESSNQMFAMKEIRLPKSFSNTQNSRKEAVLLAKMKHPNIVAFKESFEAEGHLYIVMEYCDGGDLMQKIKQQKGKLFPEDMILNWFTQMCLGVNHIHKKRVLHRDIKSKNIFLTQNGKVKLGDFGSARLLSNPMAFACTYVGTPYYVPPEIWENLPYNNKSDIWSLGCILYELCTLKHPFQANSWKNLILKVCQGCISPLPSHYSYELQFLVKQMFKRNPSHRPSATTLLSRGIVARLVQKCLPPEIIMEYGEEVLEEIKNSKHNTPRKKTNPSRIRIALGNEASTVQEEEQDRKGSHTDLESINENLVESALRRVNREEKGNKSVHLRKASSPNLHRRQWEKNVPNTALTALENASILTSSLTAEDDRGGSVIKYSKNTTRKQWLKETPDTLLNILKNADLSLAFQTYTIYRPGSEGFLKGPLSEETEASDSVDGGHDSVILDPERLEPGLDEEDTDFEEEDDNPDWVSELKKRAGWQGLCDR

Protein sequences, listed by entry. Tags and fused reporters are not part of them. Lines headed by an entry give the natural chain unless they say otherwise; changes in a name come on top.
UniProt P21918, whole entry: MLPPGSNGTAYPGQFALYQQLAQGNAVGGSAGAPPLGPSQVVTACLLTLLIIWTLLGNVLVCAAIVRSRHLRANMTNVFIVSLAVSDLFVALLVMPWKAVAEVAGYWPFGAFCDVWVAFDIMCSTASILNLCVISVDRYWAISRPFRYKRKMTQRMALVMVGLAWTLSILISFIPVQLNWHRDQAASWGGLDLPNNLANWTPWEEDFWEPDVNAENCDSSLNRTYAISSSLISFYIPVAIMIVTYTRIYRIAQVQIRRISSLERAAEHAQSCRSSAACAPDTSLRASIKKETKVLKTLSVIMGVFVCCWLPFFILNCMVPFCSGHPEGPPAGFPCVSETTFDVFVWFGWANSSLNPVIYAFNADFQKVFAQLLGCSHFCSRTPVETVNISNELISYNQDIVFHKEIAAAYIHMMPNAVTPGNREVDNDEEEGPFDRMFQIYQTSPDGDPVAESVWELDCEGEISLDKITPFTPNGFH
UniProt Q9Y2H1: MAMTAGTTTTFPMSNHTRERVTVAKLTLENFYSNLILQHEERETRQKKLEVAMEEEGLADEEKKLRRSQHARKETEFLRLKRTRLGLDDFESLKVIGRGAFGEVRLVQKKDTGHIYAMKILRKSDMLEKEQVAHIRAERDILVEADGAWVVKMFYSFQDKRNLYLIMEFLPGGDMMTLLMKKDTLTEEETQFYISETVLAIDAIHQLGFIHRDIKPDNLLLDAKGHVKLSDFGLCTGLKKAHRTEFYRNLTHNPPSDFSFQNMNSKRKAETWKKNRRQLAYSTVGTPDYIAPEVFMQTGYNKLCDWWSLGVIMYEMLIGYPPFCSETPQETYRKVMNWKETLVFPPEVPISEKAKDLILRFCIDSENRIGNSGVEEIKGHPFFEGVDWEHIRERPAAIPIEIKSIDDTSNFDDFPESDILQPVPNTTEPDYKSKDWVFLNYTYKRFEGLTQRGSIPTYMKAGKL
UniProt P19525: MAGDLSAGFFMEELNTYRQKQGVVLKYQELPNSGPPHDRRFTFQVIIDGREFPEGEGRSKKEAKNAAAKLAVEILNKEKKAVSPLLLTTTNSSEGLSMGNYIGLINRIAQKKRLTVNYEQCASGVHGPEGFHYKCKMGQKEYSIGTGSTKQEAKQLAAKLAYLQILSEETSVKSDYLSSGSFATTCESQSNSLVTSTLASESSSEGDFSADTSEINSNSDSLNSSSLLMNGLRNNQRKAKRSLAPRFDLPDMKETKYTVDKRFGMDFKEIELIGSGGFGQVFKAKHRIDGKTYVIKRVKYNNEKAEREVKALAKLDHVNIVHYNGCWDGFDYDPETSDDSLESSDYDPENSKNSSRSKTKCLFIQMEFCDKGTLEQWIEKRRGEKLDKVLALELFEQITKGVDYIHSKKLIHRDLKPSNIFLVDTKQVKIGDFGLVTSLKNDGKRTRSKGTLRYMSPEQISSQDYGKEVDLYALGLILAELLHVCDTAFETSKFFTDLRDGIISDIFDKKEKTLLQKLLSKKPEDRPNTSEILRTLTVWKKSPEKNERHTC

[2] = target: T2, Phosphatidylinositol 4,5-bisphosphate 3-kinase catalytic subunit delta isoform (Homo sapiens) (UniProt O00329); conditions: Compound concentration 1000.0 nM
T2 sequence (whole entry): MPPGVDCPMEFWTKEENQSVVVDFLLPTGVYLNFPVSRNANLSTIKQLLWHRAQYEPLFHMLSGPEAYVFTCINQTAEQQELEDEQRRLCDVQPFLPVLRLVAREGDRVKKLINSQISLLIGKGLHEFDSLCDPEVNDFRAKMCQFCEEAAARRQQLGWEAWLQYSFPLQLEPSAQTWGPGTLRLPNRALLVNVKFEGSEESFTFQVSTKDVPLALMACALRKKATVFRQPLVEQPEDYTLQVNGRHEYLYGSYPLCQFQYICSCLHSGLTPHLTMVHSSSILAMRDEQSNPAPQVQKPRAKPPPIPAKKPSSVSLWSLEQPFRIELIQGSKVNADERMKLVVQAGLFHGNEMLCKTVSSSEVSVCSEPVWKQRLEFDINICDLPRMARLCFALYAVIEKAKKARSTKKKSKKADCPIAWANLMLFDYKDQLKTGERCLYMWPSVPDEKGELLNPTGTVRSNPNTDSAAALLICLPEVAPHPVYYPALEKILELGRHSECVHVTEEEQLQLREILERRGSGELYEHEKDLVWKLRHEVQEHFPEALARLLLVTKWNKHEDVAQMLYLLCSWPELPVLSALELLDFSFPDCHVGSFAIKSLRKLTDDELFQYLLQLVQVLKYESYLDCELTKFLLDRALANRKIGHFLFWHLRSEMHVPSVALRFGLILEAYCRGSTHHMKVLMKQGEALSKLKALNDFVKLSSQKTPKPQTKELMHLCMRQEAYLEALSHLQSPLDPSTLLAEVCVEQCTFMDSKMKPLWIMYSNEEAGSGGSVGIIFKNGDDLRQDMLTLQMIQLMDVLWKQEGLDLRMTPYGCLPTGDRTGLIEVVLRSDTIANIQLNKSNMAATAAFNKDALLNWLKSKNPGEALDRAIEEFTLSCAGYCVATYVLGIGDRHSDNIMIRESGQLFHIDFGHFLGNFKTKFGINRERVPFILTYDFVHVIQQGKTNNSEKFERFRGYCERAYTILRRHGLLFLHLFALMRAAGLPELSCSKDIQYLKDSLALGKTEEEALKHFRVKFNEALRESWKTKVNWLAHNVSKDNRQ

[3] = target: D(1B) dopamine receptor (Homo sapiens) (UniProt P21918); conditions: Compound concentration 10.0 uM
[4] = target: Serine/threonine-protein kinase 38-like (Homo sapiens) (UniProt Q9Y2H1); conditions: Compound concentration 1000.0 nM
[5] = target: Interferon-induced, double-stranded RNA-activated protein kinase (Homo sapiens) (UniProt P19525); conditions: Compound concentration 1000.0 nM

SMILES | residual activity [1] [%] | residual activity [2] [%] | inhibition [3] [%] | residual activity [4] [%] | residual activity [5] [%]
N#Cc1ccc(Nc2ccc3[nH]c(=O)[nH]c3c2)c(Cl)c1 | 41 | 32 | 21.3 |  | 
O=C1CCc2cc(Nc3cc(OC4CCOCC4)c([N+](=O)[O-])cc3Cl)ccc2N1 |  |  |  | 41 | 46

— ChEMBL document CHEMBL4507304, “Data for DCP probe TP-021” (2021)
